{
  "sequences": {"note": "Amino acid sequences for entries named in this document (tags omitted).", "UniProt P08173, whole entry, looked up": "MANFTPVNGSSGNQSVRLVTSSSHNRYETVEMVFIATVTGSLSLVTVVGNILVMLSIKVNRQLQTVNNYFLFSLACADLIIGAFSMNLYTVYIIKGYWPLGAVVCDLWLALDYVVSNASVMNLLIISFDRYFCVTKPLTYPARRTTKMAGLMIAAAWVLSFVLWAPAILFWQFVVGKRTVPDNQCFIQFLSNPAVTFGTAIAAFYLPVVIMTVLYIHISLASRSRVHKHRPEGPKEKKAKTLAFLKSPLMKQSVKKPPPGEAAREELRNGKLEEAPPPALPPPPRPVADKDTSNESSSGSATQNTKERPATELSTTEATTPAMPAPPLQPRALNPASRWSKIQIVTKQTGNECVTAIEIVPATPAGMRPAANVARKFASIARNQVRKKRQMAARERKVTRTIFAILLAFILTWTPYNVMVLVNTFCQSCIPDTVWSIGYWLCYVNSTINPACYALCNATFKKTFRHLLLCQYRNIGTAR"},
  "source": "PubChem BioAssay AID625",
  "about": "(Vanderbilt High Throughput Screening Facility, 2007)",
  "note": "The entries are a selection whose mix differs from that of the whole data set. Calls of active or inactive are those of the source.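 Rule for the calls: active = fluorescence slope after compound addition differing from the mean of all tested samples at 99.7% confidence, mostly higher but some lower; inactive = the rest.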",
  "data": [
    {"target": "Muscarinic acetylcholine receptor M4 (Homo sapiens) (UniProt P08173)", "experiment": "M4-linked GIRK flux change, two-sided – cell-based, HEK293 M4/GIRK, thallium flux, BTC-AM, M4 allosteric agonist project, primary screen (AID 625);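 note: thallium influx through GIRK channels coupled to M4 in HEK293 cells with BTC-AM dye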", "details": "at 10 µM, actives lie on both sides", "values": [
      {"smiles": "CN(C)CCOC(=O)C(O)(c1ccccc1)C1CCCCC1", "note": "(stereo unspecified)", "fluorescence slope": "inactive: 0.00359"}
    ]}
  ]
}
